What is called EC50 is the concentration needed to bring the measured effect to its halfway point. Lower therefore signals an effect from little substance.

Among the data in ChEMBL document CHEMBL5725517, “Azapeptides as CD36 binding compounds” (2017) are EC50 values, retold here.

The experiment is described as follows: HS-R1a radioreceptor assay: GHS-R1a radioreceptor assay using LLCPK-1 membranes overexpressing GSH-R1a and radioiodinated (1-28) rat ghrelin as tracer.

Consider `NCCCC[C@H](NC(=O)[C@@H](Cc1ccccc1)NC(=O)[C@H](Cc1c[nH]c2ccccc12)NC(=O)NNC(=O)[C@@H](Cc1c[nH]c2ccccc12)NC(=O)[C@@H](N)Cc1cnc[nH]1)C(N)=O`, for which the concentration for a half-maximal effect (EC50) is 808 nM.

As for `C[C@H](NC(=O)N(CCc1ccccc1)NC(=O)[C@@H](N)Cc1cnc[nH]1)C(=O)N[C@@H](Cc1c[nH]c2ccccc12)C(=O)N[C@H](Cc1ccccc1)C(=O)N[C@@H](CCCCN)C(N)=O`, a half-maximal response (EC50) required 729 nM.
